# Reference: paper PMC6608569 (Bioorganic & medicinal chemistry letters, 2019)
# System: HCT116 cells
# Assay: Autophagy markers
# Type: cell-based
# Details: 2, 10, and 50 μM, 16 hours, immunoblot
smiles,measurement,value
Oc1c(Cl)cc(Cl)c(Cl)c1Cc1c(O)c(Cl)cc(Cl)c1Cl [hexachlorophene],"levels of autophagy markers p62, LC3-I, LC3-II relative to DMSO",decreased the levels of p62 and LC3-I while increasing the levels of LC3-II
